Results on two compounds are retold here after patent US20250314640A1, “SYSTEMS AND METHODS FOR HIGH THROUGHPUT SINGLE MOLECULE TRACKING IN LIVING CELLS” (EIKON THERAPEUTICS, INC., priority 2022, published 2025).

The chains behind the UniProt entries cited, without tags or fusion partners.
UniProt P03372, whole entry: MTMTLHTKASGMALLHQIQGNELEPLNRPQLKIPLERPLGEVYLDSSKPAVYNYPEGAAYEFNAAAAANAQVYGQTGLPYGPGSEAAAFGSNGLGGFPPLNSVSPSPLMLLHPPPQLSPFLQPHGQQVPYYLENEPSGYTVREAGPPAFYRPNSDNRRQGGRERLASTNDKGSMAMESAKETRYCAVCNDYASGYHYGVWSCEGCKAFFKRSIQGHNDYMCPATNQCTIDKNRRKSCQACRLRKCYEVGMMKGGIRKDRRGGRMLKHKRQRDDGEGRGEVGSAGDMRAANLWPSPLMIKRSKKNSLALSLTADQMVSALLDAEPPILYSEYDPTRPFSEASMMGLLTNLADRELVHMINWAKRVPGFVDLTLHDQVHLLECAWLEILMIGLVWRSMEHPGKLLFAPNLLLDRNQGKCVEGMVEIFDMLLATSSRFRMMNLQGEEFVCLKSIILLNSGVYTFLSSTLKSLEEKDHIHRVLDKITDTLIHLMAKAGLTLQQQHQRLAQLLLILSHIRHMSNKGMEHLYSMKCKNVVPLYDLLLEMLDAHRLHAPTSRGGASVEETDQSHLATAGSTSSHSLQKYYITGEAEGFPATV

Experiment [1] has as its target T1, progesterone receptor (PR) (Homo sapiens, UniProt P06401).
T1 sequence (P06401 1-933): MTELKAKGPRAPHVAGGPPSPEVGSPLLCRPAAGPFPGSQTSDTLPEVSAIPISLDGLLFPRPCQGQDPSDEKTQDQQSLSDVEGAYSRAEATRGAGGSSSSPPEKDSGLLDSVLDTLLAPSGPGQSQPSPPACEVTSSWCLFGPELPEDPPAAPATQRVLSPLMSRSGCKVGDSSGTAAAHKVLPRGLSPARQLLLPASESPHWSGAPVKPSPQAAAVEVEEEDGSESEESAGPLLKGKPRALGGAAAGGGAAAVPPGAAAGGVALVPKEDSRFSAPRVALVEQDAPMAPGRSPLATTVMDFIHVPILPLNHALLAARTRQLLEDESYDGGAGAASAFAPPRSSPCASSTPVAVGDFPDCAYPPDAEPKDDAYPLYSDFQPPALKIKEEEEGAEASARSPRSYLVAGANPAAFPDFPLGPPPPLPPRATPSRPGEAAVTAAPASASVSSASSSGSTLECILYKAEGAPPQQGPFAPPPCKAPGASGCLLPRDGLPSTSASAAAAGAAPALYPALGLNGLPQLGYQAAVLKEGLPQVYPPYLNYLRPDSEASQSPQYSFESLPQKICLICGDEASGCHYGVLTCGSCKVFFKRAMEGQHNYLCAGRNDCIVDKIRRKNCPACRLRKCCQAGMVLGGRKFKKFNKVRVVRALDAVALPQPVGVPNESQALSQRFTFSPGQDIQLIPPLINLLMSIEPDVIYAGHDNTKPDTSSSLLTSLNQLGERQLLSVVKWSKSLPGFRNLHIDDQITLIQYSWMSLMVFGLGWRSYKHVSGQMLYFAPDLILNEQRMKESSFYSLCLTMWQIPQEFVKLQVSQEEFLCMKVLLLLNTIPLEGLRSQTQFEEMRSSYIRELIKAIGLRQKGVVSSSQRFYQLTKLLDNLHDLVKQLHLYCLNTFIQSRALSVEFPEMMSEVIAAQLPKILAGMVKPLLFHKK
Briefly: htSMT of Halo-PR in U2OS cells. It is filed as cell-based. Particulars: 1 μM antagonist, absence or presence of cognate agonist; FIG. 34B.

In a further experiment the target is ER (Homo sapiens, UniProt P03372). Briefly: residence time imaging of ER (track length survival). It is filed as cell-based. Set-up: expressed in transfected cells. Particulars: track length distribution, long frame exposures; versus DMSO.

For the compound `CC#C[C@]1(O)CC[C@H]2[C@@H]3CCC4=CC(=O)CCC4=C3[C@@H](c3ccc(N(C)C)cc3)C[C@@]21C` [mifepristone], in experiment [1], the “change in PR chromatin binding (fbound)” value is recorded as “behaves similarly to ER antagonists”.

`C[C@]12CC[C@@H]3c4ccc(O)cc4C[C@@H](CCCCCCCCC[S+]([O-])CCCC(F)(F)C(F)(F)F)[C@H]3[C@@H]1CC[C@@H]2O` (some centres unmarked) [fulvestrant]: the “binding times (relative ER residence times)” value on ER is reported as “longer binding times compared with other ER modulators”.
